These results are taken from patent US20220117913A1, “DEZOCINE DERIVATIVE AND MEDICAL USE THEREOF” (YANGTZE RIVER PHARMACEUTICAL GROUP CO., LTD., priority 2019, published 2022).

Sequences of proteins named here, by UniProt entry; tags and fusion partners are left off.
UniProt P35372, whole entry: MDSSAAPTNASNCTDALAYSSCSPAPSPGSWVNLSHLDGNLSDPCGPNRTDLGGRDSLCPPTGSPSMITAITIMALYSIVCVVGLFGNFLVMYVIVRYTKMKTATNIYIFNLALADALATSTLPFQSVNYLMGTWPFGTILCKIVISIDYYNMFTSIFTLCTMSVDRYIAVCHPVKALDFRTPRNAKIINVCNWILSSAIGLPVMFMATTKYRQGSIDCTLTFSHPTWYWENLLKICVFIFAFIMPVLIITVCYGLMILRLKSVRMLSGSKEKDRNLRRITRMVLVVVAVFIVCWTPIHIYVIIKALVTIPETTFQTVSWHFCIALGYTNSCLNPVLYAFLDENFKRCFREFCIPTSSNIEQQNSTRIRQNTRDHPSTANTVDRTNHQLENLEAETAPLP

Each structure is given as a SMILES string.

Test [1] deals with μ opioid receptor (Homo sapiens, UniProt P35372). As to the kind of experiment: radioisotope ligand competitive binding assay, μ opioid receptor (MOR). The conditions noted are these: read-out: μ IC50; [3H]DAMGO 0.5 nM, cell membrane of stably transfected cells; tested form: HCl.
Test [2] addresses κ opioid receptor (Homo sapiens, UniProt P41145). As to the kind of experiment: radioisotope ligand competitive binding assay, κ opioid receptor (KOR). The conditions noted are these: read-out: κ IC50; [3H]Diprenorphine 0.3 nM, cell membrane of stably transfected cells; tested form: HCl. The source says: (§1) Through the radioisotope ligand competitive binding assay, IC50 of the compound was used as an indicator to evaluate the affinity of the compound to κ and δ opioid receptors.
(§2) (1) Reagents • The cell membrane was extracted from stably transfected cells constructed by WuXi AppTec, Shanghai. • 3H-diprenophrine (PerkinElmer, Cat: NET1121250UC, Lot: 2143599) • 3H-DAMGO (PerkinElmer, Cat: NET902250UC, Lot: 2139100) • 3H-DADLE (PerkinElmer, Cat: NET648250UC, Lot: 2060549) • Tris base (Sigma, Cat: T6066-1KG), prepare 1M stock and adjust pH to 7.4. • 0.5M EDTA (Invitrogen, Cat: 15575-038) • 1M MgCl2 (Sigma, Cat: M1028-100 ml) • PEI (Poly ethyleneimine) (Sigma, Cat: P3143) • Microscint 20 cocktail (PerkinElmer, Cat: 6013329) • Naltrindole (Sigma, Cat; N115) • (±)trans-U-50488 (Sigma, Cat: D8040) • DAMGO (Sigma, Cat: E7384)
(§3) (1) 1 μL of the test compounds, negative control (i.e., DMSO) and positive control (i.e., non-specific binding well compound), after being prepared, were respectively transferred to a 96-well plate; […]
(§4) (9) The radioactive signal value CPM was read using MicroBeta2;
(§5) (10) The data was analyzed with Prism 5. The percentage inhibition rate was calculated with the calculation formula: % Inh=(1-Background subtracted Assay value/Background subtracted HC value)*100.

Test [3] concerns the target δ opioid receptor (Homo sapiens, UniProt P41143). Kind of test: radioisotope ligand competitive binding assay, δ opioid receptor (DOR). The conditions noted are these: read-out: δ IC50; [3H]-DADLE 0.5 nM, cell membrane of stably transfected cells; tested form: HCl.
Description: as §1, §2, §3, §4, §5

Take `CCCN[C@H]1[C@H]2CCCCC[C@]1(C)c1cc(O)ccc1C2`: the figures for the IC50 in test [1], in test [2] and in test [3] were below 10 nM, 10 to 100 nM and 100 to 1000 nM, respectively.
For `CN(Cc1ccccc1)[C@H]1[C@H]2CCCCC[C@]1(C)c1cc(O)ccc1C2` the same measures were below 10 nM, below 10 nM and 10 to 100 nM.
